From publication PMC6946680, “Modulation of brain cation-Cl^− cotransport via the SPAK kinase inhibitor ZT-1a” (Nature Communications, 2020)

Biological target: T1, GST–[T233E]SPAK kinase (Homo sapiens, UniProt Q9UEW8, T231E)
T1 construct: made in house; host or cells: E. coli
Assay: SPAK kinase assay with CATCHtide and IC50 determination
Assay type: biochemical
Conditions: ATP 0.1 mM; inhibitor 1000 uM
From the text: II. Experimental procedures
1. Reagents and General methods
Tissue culture reagents were from Life Technologies. P81 phosphocellulose paper was from Whatman […]
and [γ-32P]-ATP was from Perkin Elmer. […] Protein G […]
sepharose was from Amersham. DNA constructs used for transfection were purified from Escherichia coli DH5α using Qiagen or Invitrogen plasmid Maxi kits according to the manufacturer's protocol. All DNA constructs were verified by DNA sequencing.
2. Plasmids, protein expression and purification
DNA clones were from the Division of Signal Transduction Therapy (University of Dundee). The SPAK proteins were expressed in E. Coli and purified as described previously 1.
3. SPAK kinase assays and IC50 determination
SPAK kinase assays employed CATCHtide (cation chloride co-transporter peptide substrate). […]
cpm/pmol) and the indicated concentrations of inhibitor dissolved in DMSO. […] The papers were washed extensively and incorporation of [γ-32P]ATP into CATCHtide was quantified by Cerenkov counting.
IC50 values were calculated with GraphPad Prism using non-linear regression analysis.
4. Fluorescence polarization […]
the absence or presence of five-fold molar excess of wild-type MO25α. b Kinetic data determined for B ZT-1a in the absence or presence of five-fold molar excess of wild-type MO25α. […]

Structure (SMILES): CN[C@@H]1C[C@H]2O[C@@](C)([C@@H]1OC)n1c3ccccc3c3c4c(c5c6ccccc6n2c5c31)C(=O)NC4 [staurosporine, reference compound]
- SPAK kinase activity signal (Fig S3 source data): 78
